Source: patent publication US12234248B2, “Co-crystal compounds comprising lithium ions and isonicotinamide” (UNIVERSITY OF LIMERICK, priority 2017, dated 2025)

Assay: Stability of crystalline material under warm humid conditions (40° C., 75% relative humidity), PXRD before and after
Type: physicochemical
Conditions: stored at 40° C., stable = retained crystal form for at least two weeks by PXRD
Experimental: The stability of these compounds under warm humid conditions was assessed as follows:
The crystalline material was stored at 40° C. in an atmosphere of 75% relative humidity.
Compounds were classed as stable if they retained their crystal form for at least two weeks as verified by examination of PXRD patterns collected before and after exposure to humidity.
It can be seen that the pattern obtained after 2 months at 75% relative humidity and 40° C. (upper trace) in this case is different.
In the case of “[Li(salicylate)(4-hydroxyproline)]n [Compound 13]”, the “Stable?” value is reported as “Yes”. In the case of “[Li4(salicylate)2(water)2]n [Compound 24]”, the “Stable?” value is reported as “No”. In the case of “[(Li(camphorsulfonate)(L-proline))2](water)]n [Compound 34]”, the “Stable?” value is reported as “No”. With “[Li2(tartrate)(L-proline)(water)2]n [Compound 20]” the “Stable?” value was “No”.
